# Data published in ChEMBL document CHEMBL1131617 (J Med Chem, 1998).
# By UniProt entry, the sequences of proteins in these tests, tags left out.
# UniProt P33535, whole entry: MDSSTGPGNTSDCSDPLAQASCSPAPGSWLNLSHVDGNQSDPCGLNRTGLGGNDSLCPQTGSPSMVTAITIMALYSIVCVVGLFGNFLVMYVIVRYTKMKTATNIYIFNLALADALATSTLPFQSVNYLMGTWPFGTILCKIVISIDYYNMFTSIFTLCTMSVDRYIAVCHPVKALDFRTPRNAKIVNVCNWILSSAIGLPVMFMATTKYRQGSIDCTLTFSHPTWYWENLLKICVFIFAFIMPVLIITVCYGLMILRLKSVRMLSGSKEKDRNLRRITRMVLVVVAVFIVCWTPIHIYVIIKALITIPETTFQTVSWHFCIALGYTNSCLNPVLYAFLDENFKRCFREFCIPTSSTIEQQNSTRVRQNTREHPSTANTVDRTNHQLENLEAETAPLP
# Biological target: Mu-type opioid receptor (Rattus norvegicus, UniProt P33535)
# Test: Relative affinity against Opioid receptor mu 1 in thalamus using [3H]DAMGO as radioligand
# Format: tissue-based
compound,measurement,value
CC[C@H]1C[C@@H]2C[C@H]3c4[nH]c5ccc(OC)cc5c4CCN(C2)[C@@H]13 [IBOGAINE],IC50,3.76 µM
